Ab-14 heavy chain CDR variants: yeast mating affinities

The measurements come from Li et al. 2023 (doi:10.1038/s41467-023-39022-2) through the FLAb antibody collection.

Binding partner: SARS-CoV-2 spike HR2 peptide, sequence PDVDLGDISGINAS.

Parent: Ab-14, a human scFv built as VH, three GGGGS repeats, VL. Only the CDRs of the heavy chain vary.
VH: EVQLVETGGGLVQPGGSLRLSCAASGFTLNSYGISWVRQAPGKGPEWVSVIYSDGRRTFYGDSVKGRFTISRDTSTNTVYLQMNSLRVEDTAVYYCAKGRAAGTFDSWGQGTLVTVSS
VL: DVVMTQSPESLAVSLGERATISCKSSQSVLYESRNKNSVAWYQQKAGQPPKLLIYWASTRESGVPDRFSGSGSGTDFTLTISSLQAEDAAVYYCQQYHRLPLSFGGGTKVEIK

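Phage display of a naive human antibody library on the peptide gave the parent. These sequences belong to a second round, designed from the earlier measurements on random variants of the parent. Several design methods are mixed in this list. AlphaSeq pools MATa yeast showing the antibodies with MATalpha yeast showing the peptide. Pairs that bind mate more often; barcode pairs of the diploids are counted by sequencing. The ratio of observed to expected reads was calibrated, replicate by replicate, on BCL2-family standards whose Kd was known from biolayer interferometry. The assay was run in six technical replicates.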

Each variant's VH is given in full. This list holds designs with more than six substitutions. Kd is apparent (estimated from mating counts) and averaged on the log scale over replicates with a signal. Smaller is tighter. A pair that was not seen in any replicate is written "nd"; this usually means weak binding, but a binder can also be missed.

With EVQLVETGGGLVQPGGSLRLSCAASGFSINEYGISWVRQAPGKGPEWVSVIYADGNRSAYIDAVKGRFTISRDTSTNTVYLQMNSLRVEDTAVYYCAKGDSGSSFLEWGQGTLVTVSS the result was nd (0 of 6 replicates).
With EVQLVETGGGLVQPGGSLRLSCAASGFDLNEYGISWVRQAPGKGPEWVSVIYADGVRTAYADSVKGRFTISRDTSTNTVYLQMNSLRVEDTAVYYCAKGNLAGTFDVWGQGTLVTVSS the result was 210 pM (6 of 6 replicates).
With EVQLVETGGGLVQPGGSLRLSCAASGFDLNEYGISWVRQAPGKGPEWVSVIYADGMRTAYSDSVKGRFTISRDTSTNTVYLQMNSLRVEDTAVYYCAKGGNAGTFDVWGQGTLVTVSS the result was 170 pM (6 of 6 replicates).
With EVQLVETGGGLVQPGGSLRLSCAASGFDLNEYGISWVRQAPGKGPEWVSVIYADGRRTSYADSVKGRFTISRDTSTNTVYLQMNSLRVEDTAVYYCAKGQLAGTFDLWGQGTLVTVSS the result was 190 pM (6 of 6 replicates).
With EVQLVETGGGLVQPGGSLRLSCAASGFDLNEYGISWVRQAPGKGPEWVSVIYADGVRTAYADDVKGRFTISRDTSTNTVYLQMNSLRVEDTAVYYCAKGETAGTFDLWGQGTLVTVSS the result was 170 pM (6 of 6 replicates).
With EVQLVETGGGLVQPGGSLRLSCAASGFDLNEYGISWVRQAPGKGPEWVSVIYADGVRTSYADSVKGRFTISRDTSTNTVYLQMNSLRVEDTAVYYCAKGENAGTFDVWGQGTLVTVSS the result was 250 pM (6 of 6 replicates).
With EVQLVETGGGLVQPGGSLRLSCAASGFDLNEYGISWVRQAPGKGPEWVSVIYADGMRTSYADSVKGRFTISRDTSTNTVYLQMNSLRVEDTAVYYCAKGEVAGTFDIWGQGTLVTVSS the result was 630 pM (6 of 6 replicates).
With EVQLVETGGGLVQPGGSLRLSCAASGFDLNEYGISWVRQAPGKGPEWVSVIYADGQRTAYANSVKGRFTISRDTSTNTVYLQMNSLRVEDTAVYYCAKGENAGTFDVWGQGTLVTVSS the result was 2.7 nM (6 of 6 replicates).
With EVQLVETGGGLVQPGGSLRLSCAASGFDLGEYGISWVRQAPGKGPEWVSVIYADGSRKAYATNVKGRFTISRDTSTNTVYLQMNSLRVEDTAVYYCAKGGSGYKDGVWGQGTLVTVSS the result was nd (0 of 6 replicates).
With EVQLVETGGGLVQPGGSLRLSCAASGFDLNEYGISWVRQAPGKGPEWVSVIYADGQRTVYADSVKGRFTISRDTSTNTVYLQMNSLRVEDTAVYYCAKGNVAGTFDQWGQGTLVTVSS the result was 2.6 nM (6 of 6 replicates).
With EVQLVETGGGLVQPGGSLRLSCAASGYDLMEYGISWVRQAPGKGPEWVSVIYADGRRVYYIDDVKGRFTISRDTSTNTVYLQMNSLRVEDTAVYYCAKGHVAGHFLLWGQGTLVTVSS the result was 150 nM (1 of 6 replicates).
With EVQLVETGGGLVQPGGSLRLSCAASGFEIQEFGISWVRQAPGKGPEWVSVIYADGERTNYSENVKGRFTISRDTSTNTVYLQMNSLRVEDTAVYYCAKGTLAGTFTTWGQGTLVTVSS the result was 220 nM (4 of 6 replicates).
With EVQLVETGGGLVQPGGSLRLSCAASGFNLDEFGISWVRQAPGKGPEWVSVIYADGRRRAYSDEVKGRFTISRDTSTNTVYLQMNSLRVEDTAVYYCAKGQHGWFLLQWGQGTLVTVSS the result was nd (0 of 6 replicates).
With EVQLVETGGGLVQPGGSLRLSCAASGEDLSEYGISWVRQAPGKGPEWVSVIYADGERRSYANSVKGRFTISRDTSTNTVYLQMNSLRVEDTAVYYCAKGGVSGNFSDWGQGTLVTVSS the result was nd (0 of 6 replicates).
With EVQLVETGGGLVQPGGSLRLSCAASGFDLDEYGISWVRQAPGKGPEWVSVIYADGMRTAYADSVKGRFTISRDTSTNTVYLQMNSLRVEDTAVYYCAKGNQAGTFDMWGQGTLVTVSS the result was 540 pM (6 of 6 replicates).
With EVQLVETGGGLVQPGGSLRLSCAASGFSLDEYGVSWVRQAPGKGPEWVSVIYADGLRTQYTNDVKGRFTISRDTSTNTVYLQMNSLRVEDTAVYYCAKGLYSFAFKMWGQGTLVTVSS the result was nd (0 of 6 replicates).
With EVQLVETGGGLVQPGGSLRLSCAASGFDLDEYGISWVRQAPGKGPEWVSVIYADGTRSGYAANVKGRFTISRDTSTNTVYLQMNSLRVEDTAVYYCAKGEAAGITMFWGQGTLVTVSS the result was nd (0 of 6 replicates).
With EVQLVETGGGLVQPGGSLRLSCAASGFDLGEYGISWVRQAPGKGPEWVSVIYADGVRKSYAQKVKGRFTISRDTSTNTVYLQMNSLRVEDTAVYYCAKGKNGAISYVWGQGTLVTVSS the result was nd (0 of 6 replicates).
With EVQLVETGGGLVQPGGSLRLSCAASGFDLDEYGISWVRQAPGKGPEWVSVIYADGIRQYAQDNVKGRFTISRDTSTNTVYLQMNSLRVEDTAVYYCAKGLLSGMTITWGQGTLVTVSS the result was nd (0 of 6 replicates).

The 3 strongest on average among those seen in every replicate, once more:

{"VH": "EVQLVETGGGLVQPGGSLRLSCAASGFDLNEYGISWVRQAPGKGPEWVSVIYADGMRTAYSDSVKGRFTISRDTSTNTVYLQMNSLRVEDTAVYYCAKGGNAGTFDVWGQGTLVTVSS", "apparent Kd": "170 pM", "replicates with signal": "6 of 6"}
{"VH": "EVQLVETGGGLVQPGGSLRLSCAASGFDLNEYGISWVRQAPGKGPEWVSVIYADGVRTAYADDVKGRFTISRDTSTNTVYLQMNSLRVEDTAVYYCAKGETAGTFDLWGQGTLVTVSS", "apparent Kd": "170 pM", "replicates with signal": "6 of 6"}
{"VH": "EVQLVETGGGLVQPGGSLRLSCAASGFDLNEYGISWVRQAPGKGPEWVSVIYADGRRTSYADSVKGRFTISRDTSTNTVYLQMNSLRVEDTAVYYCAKGQLAGTFDLWGQGTLVTVSS", "apparent Kd": "190 pM", "replicates with signal": "6 of 6"}

Of ten entries with the parent sequence, four were seen in most replicates (averages 2.2 nM to 240 nM), three in one and three in none, so single entries are noisy. The authors averaged sequences with at least three values out of six and counted those with two or fewer as poor binders. As a blank, each scFv also met three strains without target: over all heavy chain designs, 1% of these pairings were detected, typically at 120 nM and seldom below 7.0 nM. A sequence measured in both rounds can read differently, since the two assays cover different ranges.